How the values were obtained:
[1] = tested on: infectious SARS-CoV-2 virus in Vero E6 cells; format: cell-based
[2] = tested on: infectious SARS-CoV-2 virus in Vero E6 cells; format: cell-based; remark: listed apart in the source

## O=C(Cn1nnc2ccccc21)N(Cc1cccc(Cl)c1)c1ccc(-c2c[nH]cn2)cc1 [Compound 41, N-(4-(1H-Imidazol-4-yl)phenyl)-2-(1H-benzo[d][1,2,3]triazol-1-yl)-N-(3-chlorobenzyl)acetamide]
[1]
  Plaque Reduction Assay EC50: sub-micromolar
[2]
  CPE Inhibition Assay EC50: sub-micromolar

— PMC8353992 (Journal of medicinal chemistry, 2021)
